According to paper PMC11276905 (International Journal of Molecular Sciences, 2024):

Columns and labels:
[1] = target: T1, isolated HNE (human neutrophil elastase) (Homo sapiens, UniProt P08246); assay: Inhibition of isolated HNE, steady-state kinetics (MeOSuc-AAPV-AMC); format: biochemical; details: HNE 0.5 nM, incubated 1 h 37 °C, Morrison fit, mean ± SD; compound 5b in phosphate buffer pH 7.4
T1 construct: immediately processed to its active form in the trans-Golgi before being targeted to azurophil granules; purchased Merck (Darmstadt, Germany) 324681
T1 sequence (P08246 30-267): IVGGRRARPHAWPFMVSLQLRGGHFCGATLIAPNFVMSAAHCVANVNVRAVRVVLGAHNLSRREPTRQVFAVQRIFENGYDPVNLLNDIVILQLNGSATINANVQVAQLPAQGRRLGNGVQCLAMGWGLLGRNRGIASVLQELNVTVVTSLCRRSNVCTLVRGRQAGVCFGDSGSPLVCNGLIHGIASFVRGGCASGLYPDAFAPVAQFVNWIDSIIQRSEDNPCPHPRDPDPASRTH
Procedure: (§1) To determine the inhibition constants of reversible inhibitors with isolated HNE and HNE in cell lysates, HNE (0.5 nM) and U937 lysates (1000 cells/µL) were incubated with serial dilutions of the compounds in assay buffer at 37 °C for ≥ 1 h. Subsequently, residual HNE activity was measured as described above and compared to the activity of uninhibited HNE. […] The inhibition curves generated were fitted to Morrisons’s equation to obtain the dissociation equilibrium constant Ki with pro-Fit (Quantum Soft, Uetikon am See, Switzerland) using a Levenberg–Marquardt algorithm.

HNE in U937 lysates = target: T2, HNE in U937 lysates (Homo sapiens, UniProt P08246); assay: Inhibition of HNE activity in U937 lysates; format: biochemical; details: U937 lysate 1000 cells/µL, incubated 1 h 37 °C, Morrison fit, mean ± SD
T2 construct: the myeloid cell line U937, which can differentiate into neutrophils [25] and expresses HNE; host or cells: U937 (histiocytic lymphoma), undifferentiated
T2 sequence (P08246 30-247 limits assumed): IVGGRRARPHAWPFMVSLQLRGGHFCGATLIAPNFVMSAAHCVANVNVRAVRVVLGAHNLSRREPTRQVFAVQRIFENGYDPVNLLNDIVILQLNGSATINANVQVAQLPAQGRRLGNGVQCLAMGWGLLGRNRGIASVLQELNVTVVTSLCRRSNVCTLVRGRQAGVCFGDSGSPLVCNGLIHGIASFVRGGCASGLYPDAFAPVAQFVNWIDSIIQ
Procedure: For the quantification and characterization of HNE-like activity in cell lysates, the density of the sample cell suspension was first quantified using a CASY-1 cell counter.
as §1

Ki [1]: 17 nM
Ki (HNE in U937 lysates): 19 nM
Compound: CC(C)(C)C(=O)Oc1ccc(S(=O)(=O)Nc2ccccc2C(=O)NCC(=O)O)cc1 [Sivelestat, sivelestat]
